These results are taken from PubChem BioAssay AID504834 (National Center for Advancing Translational Sciences (NCATS), 2011).

The entries are a selection whose mix differs from that of the whole data set. Records with an inconclusive call do not appear. The source made the active and inactive calls. The call rests on the fitted dose curve; in most records, active means well fitted inhibition curve with a large enough effect; inconclusive means small, poorly fitted or top-dose-only effect, or another doubt; inactive means no such curve, though single readings can be large or run the other way.
Potency means the concentration at half of the fitted maximal effect.

The nature of this test: Primary qHTS for delayed death inhibitors of the malarial parasite plastid, 96 hour incubation. To be noted: P. falciparum luciferase reporter growth. The source says:
The goal of this screen is to discover new antimalarial compounds that act by inhibiting the development of the apicoplast in the malarial parasite Plasmodium falciparum. The biochemical processes that make this organelle essential for erythrocytic stage parasites are not well understood. However, antibiotics such as azithromycin and tetracycline, which target the apicoplast translational machinery, have a potent antimalarial effect.
We have developed a cell-based assay that measures parasite growth based on the expression of an integrated copy of a firefly luciferase reporter. To detect small molecules that cause this "delayed death" phenotype, erythrocytes infected with the luciferase-expressing parasites were incubated with compounds for either one or two generations, corresponding to 48 and 96 hours, respectively. Compounds that inhibit parasite growth in the second generation, but not the first, should be enriched in antimalarials that target the apicoplast. Growth inhibition is detected by a decrease in luciferase activity. […]
Four microliters of infected erythrocytes (2% hematocrit, 0.05% parasitemia final concentration) in culture medium were dispensed and the plates incubated for 96 hours at 37 C in 5% CO2. Two microliters of luciferase detection reagent was added and luminescence was detected by a ViewLux (PerkinElmer) reader.
Consider `COc1ccc(C[C@H](C)NC[C@@H](O)c2ccc(O)c(NC=O)c2)cc1`, for which the Potency was active: 10.7 µM.
